Legend:
VIM-2 expressing E. coli [1] = test: microbe, parasite or virus in culture; format: cell-based; details: Escherichia coli
NDM-1 [2] = biological target: T1, NDM-1 (Klebsiella pneumoniae, UniProt C7C422); test: Dose response enzymatic inhibition assay and inhibition constant, NDM-1; format: biochemical
in vitro = details: human
VIM-2 expressing E. coli [3] = format: cell-based, Escherichia coli
Protocol: (§1) Both Escherichia coli BL21 (DE3) cells (Invitrogen) and its transformed cell lines with plasmid pet24a-VIM-2 have been reported previously (M. F. Mojica, et al., Exploring the Role of Residue 228 in Substrate and Inhibitor Recognition by VIM Metallo-beta-lactamases, Biochemistry-Us, 54 (2015) 3183-3196). The optical density of the cell cultured was monitored at 600 nm (OD600 nm). The cells were cultured on 0.8 g/100 ml nutrient agar plate at pH 7.0 and 37° C. The bacterial growth medium was diluted in nutrient broth (NB) to a concentration absorbance of 1.5 and incubated overnight in 10 ml capped culture tubes with shaking. An overnight culture of the bacterial strain was sub-cultured to 0.06 OD600 nm into the NB medium and was then seeded at max 200 μl into the wells of a 96 well microtiter plate. Samples were then incubated at 37° C. and shaken at 200 rpm for 18 h. The absorbance was measured on an ELIZA plate reader and analyzed with the Gen5™ software suite (version 1.08).
(§2) • The data are reported as relative percentage growth compared to untreated cells.

Sequences of proteins named here, by UniProt entry; tags and fusion partners are left off.
UniProt C7C422, whole entry, looked up, species assumed: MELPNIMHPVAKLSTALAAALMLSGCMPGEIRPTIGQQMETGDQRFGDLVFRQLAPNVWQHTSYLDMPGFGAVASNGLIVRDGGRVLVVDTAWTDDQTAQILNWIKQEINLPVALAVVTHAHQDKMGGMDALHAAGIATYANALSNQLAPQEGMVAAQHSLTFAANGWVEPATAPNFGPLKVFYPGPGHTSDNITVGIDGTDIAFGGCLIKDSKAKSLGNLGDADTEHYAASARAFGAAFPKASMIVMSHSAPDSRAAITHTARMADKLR

E. coli = format: cell-based, Escherichia coli
Protocol: as §1, §2

NDM-1 [4] = biological target: T1, NDM-1; test: biochemical
VIM-2 = VIM-2 (Pseudomonas aeruginosa, UniProt Q5U7L7); test: biochemical

Oc1cccc2cccnc12 [Compound 31, 8-Hydroxyquinoline]
EC50 (VIM-2 expressing E. coli [1]): 80 nM
IC50 (NDM-1 [2]; 5 nM MBL, 10 μM nitrocefin): 2300 nM
NDM-1 LE (ligand efficiency) (NDM-1 [2]; LE = −1.38 log (Ki)/N, N = number of heavy atoms): 0.81
Ki (NDM-1 [2]; nitrocefin substrate, competitive-inhibition fit): 360 nM
CC50 at 72 h (in vitro): 3500 nM
growth inhibition on its own (VIM-2 expressing E. coli [3]; VIM-2 expressing E. coli, compound alone): over 42%
VIM-2 expressing E. coli Amox (+) relative percentage growth compared to untreated cells (VIM-2 expressing E. coli [3]; single dose, with 50 μM amoxicillin): 5.0%
VIM-2 expressing E. coli Amox (−) relative percentage growth compared to untreated cells (VIM-2 expressing E. coli [3]; single dose, without amoxicillin): 51%
E. coli Amox (+) relative percentage growth compared to untreated cells (E. coli): 4.7%
E. coli Amox (−) relative percentage growth compared to untreated cells (E. coli): 58%
growth inhibition on its own (E. coli): over 42%
NDM-1 percentage inhibition (NDM-1 [4]; 50 μM compound, 5 nM MBL, 10 μM nitrocefin, 30 mins): 96%
inhibition at 50 µM (NDM-1 [4]; read-out: NDM-1 percentage inhibition, 50 μM compound, 5 nM MBL, 10 μM nitrocefin, 30 mins): > 96%

O=C(O)c1ccnc2c(O)cccc12 [Compound 44]
IC50 (VIM-2; 5 nM MBL, 10 μM nitrocefin): 2200 nM

O=C(O)c1ccc2cccnc2c1O [Compound 45, 8-hydroxyquinoline-7-carboxylic acid]
Ki (VIM-2): 280 nM

Reference: US12377086B2, “Therapeutic methods, combinations and kits” (priority 2021, dated 2025)
